Data taken from publication PMC6646794 (Biochimica et Biophysica Acta. Molecular Cell Research, 2019).

What was measured:
[1] = tested on: NudT9H domain; assay: ITC measurement of CaM binding to intact NudT9H; set-up: species or system human
[2] = tested on: NudT9H domain; assay: Thermal unfolding of NudT9H by nDSF; assay type: binding, human; conditions: NudT9H 0.2 mg/ml with 1.0 mg/ml Ca2+-CaM, 1 °C/min, 25 mM Tris pH 7.4, 150 mM NaCl, 2 mM CaCl2, 10% glycerol
[3] = tested on: TRPM2; conditions: ref [23]; cited from earlier work
Description: TRPM2 is regulated by a multitude of factors including intracellular nucleotides, calcium [[14], [15], [16]], temperature, phosphorylation and pH [19]. […] 2′-deoxy-ADPR is an endogenous nucleotide that can be synthesized from n ... || Besides its modulation by nucleotides and Ca^2+, TRPM2 is also affected by temperature making it one of so far nine thermosensitive TRP channels (thermoTRPs).

In the case of calmodulin [Ca^2+-CaM], the “temperature of Ca2+-CaM binding to NudT9H (upon partial unfolding)” value ([1]; binding occurs upon partial unfolding of NudT9H) was over 35 °C, the “binding to NudT9H” value ([1]; room temperature, ITC, 600 μM CaM into 24 μM NudT9H, 25 mM Tris pH 7.4, 150 mM NaCl) was “could not detect binding at room temperature” and the “change of nDSF profile of NudT9H” value [2] was “decrease in the fluorescence emission at 350 nm (F350) and an increase in F330”. The “binding to TRPM2” value [3] was “binds to an IQ-like motif in the N-terminus of TRPM2”.
